## Binding of CDR-mutated scFvs to a peptide of the spike HR2 region

Antigen: PDVDLGDISGINAS, a 14-residue peptide of the SARS-CoV-2 spike HR2 region.

The variants keep the light chain, the linker and the frameworks of Ab-14 (scFv order VH, the linker GGGGSGGGGSGGGGS, VL).
VH: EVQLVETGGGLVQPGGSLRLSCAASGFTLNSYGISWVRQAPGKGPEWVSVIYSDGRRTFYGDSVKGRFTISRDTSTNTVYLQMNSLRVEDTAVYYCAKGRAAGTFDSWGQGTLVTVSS
VL: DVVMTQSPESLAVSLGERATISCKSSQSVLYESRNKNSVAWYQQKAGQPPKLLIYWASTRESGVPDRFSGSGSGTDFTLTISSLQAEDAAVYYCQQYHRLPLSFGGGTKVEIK

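The starting antibody came from a phage panning campaign against this peptide. Variants in AAYL49 differ from the parent at up to three CDR positions; double and triple changes were sampled at random. In AlphaSeq, yeast of one mating type display the scFv and yeast of the other type display the target. Mating (16 h, 30 °C) was followed by selection of diploids and sequencing of their barcodes. The ratio of observed to expected reads was calibrated, replicate by replicate, on BCL2-family standards whose Kd was known from biolayer interferometry. There are three technical replicates.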

Each variant is given by its three heavy chain CDRs, as the data file delimits them; those of the parent are GFTLNSYGIS, VIYSDGRRTFYGDSVK, GRAAGTFDS. All variants listed here change V64 of the VH, counted from its first residue. The read-out is the apparent dissociation constant on a log10 scale (nM): the lower, the stronger. Averages over replicates are reported, and they cover detected replicates only. Where no diploid with the target was found in that replicate, the entry reads "nd": below detection, most likely a poor binder, though not proof of it.

The variant GFTLNSYGIS / VIYSIGRRTFYGDSLK / GCAAGTFDS gave nd, nd, nd. The variant GFTGNSYGIS / VIYSDGRRTFYGDSTK / GRAAGTFDA gave nd, 3.33, nd. For KFTLNSYGIS / VITSDGRRTFYGDSMK / GRAAGTFDS, the assay gave nd, nd, 3.38. The variant GFTLNSYGIK / VIYSDGRRDFYGDSIK / GRAAGTFDS gave 3.18, nd, 4.81 (mean 3.99). With GFTLNSYGIS / VIYLDTRRTFYGDSIK / GRAAGTFDS the result was nd, nd, nd. With GFTLNSYGIS / SIYSDGRRTFYGDTYK / GRAAGTFDS the result was nd, nd, nd. The variant GFTLNSYGIS / VIYSDGRRTFYGDSEK / GRAAGTFDS gave nd, nd, nd. The variant GFTLNSYGIS / VIYSDGRRTFYPDSRK / TRAAGTFDS showed nd, 3.44, 3.84 (mean 3.64). With GFTLNSYGIS / VIYSDGRRTKYGDSSK / GRAAGTFDS the result was nd, nd, 3.65.

For GFTLNSYGIS / VIYSDGRRTFYGDSIC / GRADGTFDS, the assay gave nd, nd, 4.40. For GFTLNSYGIS / VIYSAGRRTFYGDSAK / GRAAGCFDS, the assay gave nd, nd, nd. The variant GFTLNSYGIS / VIYSDGRQTFYGDSRK / GRAAGTFDS gave nd, nd, nd. With GFTLNSYGIV / VYYSDGRRTFYGDSWK / GRAAGTFDS the result was nd, nd, nd. For GFTLNSYGIS / VIYSDGRRTFYGDSIK / MRAAGTFDS, the assay gave 2.41, nd, nd. The variant GFTLNSVGIS / VIYSDGRRTFYGWSYK / GRAAGTFDS showed nd, nd, nd. For GFTLNSYGIS / VIISTGRRTFYGDSSK / GRAAGTFDS, the assay gave nd, nd, nd. The variant GFTLNSYGIS / VIYSDGRITFYGDSNK / QRAAGTFDS showed nd, nd, nd. The variant GFTLPSYGIS / VIYSDERRTFYGDSAK / GRAAGTFDS gave nd, nd, nd.

For GFTLNSYGIS / VIYSDGRRTFDGDSQK / GRAAGTFLS, the assay gave 3.69, 4.29, 4.73 (mean 4.24). For GFTLNSYGIS / VAYSDGWRTFYGDSQK / GRAAGTFDS, the assay gave nd, nd, nd. The variant GFTLNSYGNS / VIYSDGRRTFYGDSEK / DRAAGTFDS showed nd, nd, 2.86. The variant GFTLNSYGIS / VIYSDGRRTFYGDSLK / GRAAFTFDS showed 5.07, 4.18, nd (mean 4.63). With GFTLNSYGYS / VIYSDGRRTFYGDSPK / GRAAGTFFS the result was nd, nd, nd. The variant GFTLNSYGIS / VIYSVGRRTAYGDSIK / GRAAGTFDS gave nd, nd, nd. The variant GFTLNSYGIS / VIYGDGRRTFYGDSMK / GCAAGTFDS gave nd, nd, nd. For GFTLNSYGIS / VIYSIGRRTFYGDSHK / GRAAGDFDS, the assay gave nd, nd, nd. With GFTLNSYGIS / VIYSDGRSEFYGDSCK / GRAAGTFDS the result was nd, 4.97, nd.

The variant GFTLNSYGIS / VIYSDGRRTFYGDRMK / GRAAGTFDS showed 4.66, 3.31, nd (mean 3.98). With GFTLNSYGIS / VIYSDGRRVFYGDSGK / GRANGTFDS the result was 3.03, 2.89, 3.61 (mean 3.17). For GFTLNSYGIS / VHYSDGRRTFYGDSQK / GRAAGTFDS, the assay gave nd, nd, nd. For GFTLNSYGIS / VIYSDGRRTFYGDSNK / GRMAGTFDS, the assay gave nd, 2.59, nd. The variant YFTLNSYGIS / VIYSDGRRTFYGDYFK / GRAAGTFDS showed nd, nd, nd. With GFTLNSYGIS / WIYSDGRRTFYGDSMK / GCAAGTFDS the result was nd, nd, nd. The variant GFTLNSYGVS / VIYSEGRRTFYGDSIK / GRAAGTFDS showed 3.36, 3.69, 4.30 (mean 3.78). The variant GQTLNSYGIS / VIYSDGRRTFYGDSDK / GRAAGTFDS gave nd, nd, nd. For GFTLNSYGIS / VIYSDGRRTFYGDSYS / GRAAGTFDD, the assay gave nd, nd, nd.

With GFTLNSYGIN / VIYSDGRRTRYGDSTK / GRAAGTFDS the result was nd, nd, nd. The variant GFTLNSYGIG / VIYSDGRQTFYGDSRK / GRAAGTFDS gave 3.74, 5.23, nd (mean 4.49). The variant GFTLNSYGIS / VWYSDGRRTFYGDSYK / GDAAGTFDS gave nd, nd, nd. The variant GFTLNSYGIS / VIYSDGRRTFYGISPK / GRAAGTFDS showed nd, 3.24, 3.59 (mean 3.41). With GFTFNSYGIS / VIYSDGRRTFYNDSAK / GRAAGTFDS the result was nd, nd, nd. With GFTLNSYGIS / VIYSDGRRNFYGDSPK / GRAAGTFDM the result was nd, nd, nd. With GFTLNSYGIS / VIYSDGQRPFYGDSFK / GRAAGTFDS the result was 6.38, 4.17, nd (mean 5.27). The variant GFTLNSYGIS / VIYSDGVRTFEGDSEK / GRAAGTFDS gave nd, nd, nd.

For reference, 7 entries of the list once more:

CDR-H1	CDR-H2	CDR-H3	log10 Kd (nM) by replicate	mean, log10 nM
GFTLNSYGIS	VIYSDGRRTFYGDSIC	GRADGTFDS	nd, nd, 4.40	4.40
GFTLNSYGIS	VIYSIGRRTFYGDSLK	GCAAGTFDS	nd, nd, nd	nd
GFTLNSYGIS	VIYSDGRQTFYGDSRK	GRAAGTFDS	nd, nd, nd	nd
GFTLNSYGIS	VIYSDGRRTFYGDSLK	GRAAFTFDS	5.07, 4.18, nd	4.63
GFTGNSYGIS	VIYSDGRRTFYGDSTK	GRAAGTFDA	nd, 3.33, nd	3.33
GQTLNSYGIS	VIYSDGRRTFYGDSDK	GRAAGTFDS	nd, nd, nd	nd
GFTLNSYGIS	VIYSDGRRTFYGDRMK	GRAAGTFDS	4.66, 3.31, nd	3.98

Empty control strains, which show no peptide, gave a signal in 15% of pairings with library AAYL49; the median was 4.06 and 95% of these signals were weaker than 2.83. No background was subtracted. Parent in this assay: reference entry 0.65, copy in this library 4.11 (one replicate of three).

Values reported by Engelhart et al. 2022, doi:10.1038/s41597-022-01779-4 (FLAb copy).